Literature values, collected in patent publication US20090317451A1, “PRESSURE-SENSITIVE ADHESIVE FOR SKIN SURFACE AND/OR TRANSDERMAL SUBSTANCE DELIVERY” (priority 2008, published 2009).
Only a part of the results on these compounds is given; other tests are left out.

Conditions: solvent(s) in which soluble; Merck 12th edition or other reference

For `CCC(=O)N(c1ccccc1)C1CCN(CCc2ccccc2)CC1`, the “Reported Solubility” value is listed as “Alcohol”.
